This note sets out measurements from patent US8012949B2, “Bisphosphonate compounds and methods with enhanced potency for multiple targets including FPPS, GGPPS, and DPPS” (The Board of Trustees of the University of Illinois, priority 2004, dated 2011).

Protein sequences, listed by entry. Tags and fused reporters are not part of them.
UniProt Q5T2R2, whole entry: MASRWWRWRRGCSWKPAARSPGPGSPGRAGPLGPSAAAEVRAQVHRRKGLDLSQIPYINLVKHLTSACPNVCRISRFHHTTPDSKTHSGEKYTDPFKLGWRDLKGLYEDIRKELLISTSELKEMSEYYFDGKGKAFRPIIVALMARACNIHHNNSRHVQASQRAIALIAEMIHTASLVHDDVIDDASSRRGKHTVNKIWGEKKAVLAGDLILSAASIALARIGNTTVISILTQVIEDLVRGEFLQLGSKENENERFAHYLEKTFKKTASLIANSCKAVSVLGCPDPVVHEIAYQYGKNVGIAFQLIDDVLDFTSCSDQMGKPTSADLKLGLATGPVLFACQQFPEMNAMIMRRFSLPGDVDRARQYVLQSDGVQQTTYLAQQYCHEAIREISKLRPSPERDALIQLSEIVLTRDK
UniProt Q86YH6, whole entry partner: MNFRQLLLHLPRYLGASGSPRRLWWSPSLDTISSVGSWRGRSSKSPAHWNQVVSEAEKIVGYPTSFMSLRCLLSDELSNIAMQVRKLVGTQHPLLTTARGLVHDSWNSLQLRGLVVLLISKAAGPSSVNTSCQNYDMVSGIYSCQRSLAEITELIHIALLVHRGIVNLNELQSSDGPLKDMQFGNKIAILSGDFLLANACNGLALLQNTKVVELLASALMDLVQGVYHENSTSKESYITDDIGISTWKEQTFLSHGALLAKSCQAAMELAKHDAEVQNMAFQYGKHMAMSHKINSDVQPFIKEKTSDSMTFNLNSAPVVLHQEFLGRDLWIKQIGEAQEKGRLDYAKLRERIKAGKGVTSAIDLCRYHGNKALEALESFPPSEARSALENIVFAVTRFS

Common to all, as to conditions: Table 1, experimental; tested form: inner salt (zwitterion) as drawn
The test system of experiment [1] is NCI-H460 (lung large cell). Put plainly: NCI-H460 cell growth inhibition (MTT). The class given is cell-based, human.
Experiment [2] addresses human DPPS (Homo sapiens, UniProt Q5T2R2). Put plainly: human DPPS enzyme inhibition. The class given is biochemical.
In experiment [3] the test system is MCF-7 (breast adenocarcinoma). Put plainly: MCF-7 cell growth inhibition (MTT), incl. FOH/GGOH rescue. The class given is cell-based, human.

`CCCCCCC#Cc1ccc[n+](CC(P(=O)([O-])O)P(=O)(O)O)c1` (stereo not drawn): the “NCI-H460 pIC50 (M)” value in experiment [1] is on record as 6.0 M. Besides, the “DPPS_pKi” value in experiment [2] turned out to be 7.0 M. Besides, the “MCF-7 pIC50 (M)” value in experiment [3] is given as 5.3 M.
